In US4956367A, “2-amino-4-morpholino-6-propyl-1,3,5-triazines” (U C B S.A., priority 1988, dated 1990):

Tests used:
[1] = system: amnesia induced by scopolamine; experiment: Multiple-trial passive avoidance: mnemic retention, amnesia induced by scopolamine; format: in vivo, male Sprague-Dawley rats; details: rats, active dose against the amnesing effect of scopolamine
Method: 4. Multiple-trial passive avoidance. The compounds of the present invention have been studied with the aim of
Columns 3 and 4 show the results obtained in the test used to evaluate the learning. The figures indicate the average number of trials needed for a control animal (group 1) or an animal treated (group 2) with the compound to learn to remain on the rubber mat for 180 seconds in order to avoid the electric shock. The results were analyzed by the Student test.

Toxicity (Irwin's test) = format: in vivo; details: mice, intraperitoneal
Method: The toxicity of the c:xspounds of the invention has been determined on male NMRI mice by means of the Irwin's test (S. IRWIN, Psychopharmacologia,13,(1968),222-257). Progressive doses of the compound to be tested are administered intraperitoneally to groups of three mice until the lethal dose is reached (dose which causes the death of two animals out of three within 48 hours).

Which “active dose relative to side effects and toxic dose” value [1] does the source give for `CNC(=O)Oc1ccc2c(c1)[C@]1(C)CCN(C)[C@@H]1N2C` [physostigmine, reference compound] here?
Its value is “at a dose which has side effects and is very close to the toxic dose”.

And the “Lethal dose (death of two animals out of three within 48 hours)” value (Toxicity (Irwin's test))?
Its value is 0.82 mg/kg.
